In US12343326B2, “Psychoactive medicines and their use for treating psychiatric and neurological conditions and disorders” (Transcend Therapeutics, Inc., priority 2021, dated 2025):

Assay: Excipient compatibility study (appearance, assay, related substances)
Type: physicochemical
Experimental: In this Example, the physical and chemical compatibility of methylone drug substance, 50 mg with various commonly used solid dosage form excipients, as well as methylone active pharmaceutical ingredient (API) alone, was analyzed. Analyses were conducted at t=0, 2, 4 and 8 weeks for appearance, assay, and related substances for samples stored in closed vials at 25° C./60% RH and 40° C./75% RH.
Excipient Compatibility Sample Mixtures: The excipients and API were dispensed individually by weight into 20 mL clear borosilicate (type I) glass vials to fill the appropriate weights as listed in Table 12. Table 12 lists mixtures of API with varied excipients and a stand-alone control sample of API alone. Each excipient mixture sample preparation was conducted using a clean spatula to mix the vial ingredients for 30-60 seconds. Each vial was properly labeled with the description and storage conditions. One vial was used for testing at the initial (t=0) time point. Three vials, closed, were placed at each storage condition to allow sampling at each time point and one vial, closed, was placed at each storage condition for overage.
Excipient Compatibility Sample Analysis: Each individual vial sampled at the requested time points was analyzed for the following parameters: (a) Appearance (Visual); Assay (HPLC); (c) Related Substances (HPLC).

For `CNC(C)C(=O)c1ccc2c(c1)OCO2` (stereo not shown) [methylone, 3,4-methylenedioxy-N-methylcathinone], which “Assay (% Recovery)” value (2 Week 25° C./60% RH, closed vial) is on record?
The value was 99.7%.

And the “Assay (% Recovery)” value (4 Week 40° C./75% RH, closed vial)?
Its value is 99.6%.

What about the “Assay (% Recovery)” value (8 Week 25° C./60% RH, closed vial) of the same molecule?
Its value is 98.2%.

And the “Assay (% Recovery)” value (t = 0)?
Its value is 100.6%.
